The chains behind the UniProt entries cited, without tags or fusion partners.
UniProt P23975, whole entry: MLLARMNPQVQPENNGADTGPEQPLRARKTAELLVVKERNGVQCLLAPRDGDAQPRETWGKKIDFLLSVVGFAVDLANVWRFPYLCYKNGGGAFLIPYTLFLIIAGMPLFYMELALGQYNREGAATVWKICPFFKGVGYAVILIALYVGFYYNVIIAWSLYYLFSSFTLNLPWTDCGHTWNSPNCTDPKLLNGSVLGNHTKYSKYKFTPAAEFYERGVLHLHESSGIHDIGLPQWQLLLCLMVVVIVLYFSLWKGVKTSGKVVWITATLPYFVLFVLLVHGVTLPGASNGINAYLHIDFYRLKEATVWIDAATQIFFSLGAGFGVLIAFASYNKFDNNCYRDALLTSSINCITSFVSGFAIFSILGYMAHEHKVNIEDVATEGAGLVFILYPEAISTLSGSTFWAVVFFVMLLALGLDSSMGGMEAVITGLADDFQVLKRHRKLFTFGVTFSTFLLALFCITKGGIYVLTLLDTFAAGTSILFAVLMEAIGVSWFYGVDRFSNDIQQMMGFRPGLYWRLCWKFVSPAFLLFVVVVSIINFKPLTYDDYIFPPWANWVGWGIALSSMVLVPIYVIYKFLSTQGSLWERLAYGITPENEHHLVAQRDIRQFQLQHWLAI

In patent US7507717B2 (Xenome Ltd., priority 2002, dated 2009):

Legend:
[1] = biological target: T1, human noradrenaline transporter (hNET) (Homo sapiens, UniProt P23975); experiment: biochemical; format: binding; details: for IC50: Av IC50 Displacement of 3H-nisoxetine from hNET
T1 construct: expressed in transfected cells; host or cells: COS-7 cells (ATCC), transient transfection with metafectene

[2] = biological target: T1, human noradrenaline transporter (hNET); experiment: cell-based

Question: For `CCCC[C@H](NC(=O)CNC(=O)[C@@H](N)CCCN)C(=O)N[C@H]1CSSC[C@@H](C(N)=O)NC(=O)[C@@H]2C[C@@H](O)CN2C(=O)[C@H](Cc2c[nH]cn2)NC(=O)[C@@H]2CSSC[C@H](NC1=O)C(=O)NCC(=O)N[C@@H](Cc1ccc(O)cc1)C(=O)N[C@@H](CCCCN)C(=O)N[C@@H](CC(C)C)C(=O)N2` [compound 96], which IC50 [1] is on record?
Answer: 468 nM

Question: What about the IC50 [2] of the same compound?
Answer: 288 nM

Question: How did the IC50 [1] turn out when `CCCC[C@H](NC(=O)CNC(=O)[C@H](CCCNC(=N)N)NC(=O)[C@H](Cc1ccc(O)cc1)NC(=O)[C@@H]1CCC(=O)N1)C(=O)N[C@H]1CSSC[C@@H](C(N)=O)NC(=O)[C@@H]2C[C@@H](O)CN2C(=O)[C@H](CCCNC(=N)N)NC(=O)[C@@H]2CSSC[C@H](NC1=O)C(=O)NCC(=O)N[C@@H](Cc1ccc(OC)cc1)C(=O)N[C@@H](CCCCN)C(=O)N[C@@H](CC(C)C)C(=O)N2` [compound 41] was run?
Answer: 110 nM

Question: What about the IC50 [2] of the same compound?
Answer: 132 nM

Question: `CCCC[C@@H]1NC(=O)[C@H](CCCCN)NC(=O)[C@H](Cc2ccc(O)cc2)NC(=O)CNC(=O)[C@@H]2CSSC[C@H](NC1=O)C(=O)N[C@@H](Cc1c[nH]cn1)C(=O)N1C[C@H](O)C[C@H]1C(=O)N[C@H](C(N)=O)CSSC[C@H](NC(=O)[C@@H](NC(=O)CNC(=O)[C@@H](N)CC(N)=O)C(C)C)C(=O)N2` [compound 126] was tested. Which IC50 [1] did it give?
Answer: 1550 nM

Question: What about the IC50 [2] of the same compound?
Answer: 479 nM

Question: Which IC50 [1] does the source give for `CC(C)C[C@@H]1NC(=O)[C@H](CCCCN)NC(=O)[C@H](Cc2ccc(O)cc2)NC(=O)CNC(=O)[C@@H]2CSSC[C@H](NC1=O)C(=O)N[C@@H](Cc1c[nH]c3ccccc13)C(=O)N1C[C@H](O)C[C@H]1C(=O)N[C@H](C(N)=O)CSSC[C@H](NC(=O)[C@@H](NC(=O)CNC(=O)[C@H](CC(N)=O)NC(=O)[C@@H](N)Cc1ccc(O)cc1)C(C)C)C(=O)N2` [compound 71] here?
Answer: 229 nM

Question: What about the IC50 [2] of the same compound?
Answer: 38 nM

Question: What does the source list for `CCCC[C@H](NC(=O)CNC(=O)[C@@H](N)CC(N)=O)C(=O)N[C@H]1CSSC[C@@H](C(N)=O)NC(=O)[C@@H]2C[C@@H](O)CN2C(=O)[C@H](Cc2c[nH]cn2)NC(=O)[C@@H]2CSSC[C@H](NC1=O)C(=O)NCC(=O)N[C@@H](Cc1ccc(OC)cc1)C(=O)N[C@@H](CCCCN)C(=O)N[C@@H](CCCC)C(=O)N2` [compound 61]?
Answer: IC50 [1]: 178 nM; IC50 [2]: 126 nM

Question: For `CCCC[C@H](NC(=O)CNC(=O)[C@@H](N)CC(N)=O)C(=O)N[C@H]1CSSC[C@@H](C(N)=O)NC(=O)[C@@H]2C[C@@H](O)CN2C(=O)[C@H](Cc2c[nH]cn2)NC(=O)[C@@H]2CSSC[C@H](NC1=O)C(=O)NCC(=O)N[C@@H](Cc1ccc(OC)cc1)C(=O)N[C@@H](CCCCN)C(=O)N[C@@H](CCC(C)C)C(=O)N2` [compound 47], which IC50 [1] is on record?
Answer: 132 nM

Question: And the IC50 [2]?
Answer: 166 nM

Question: With `CC(C)C[C@@H]1NC(=O)[C@H](C)NC(=O)[C@H](Cc2ccc(O)cc2)NC(=O)CNC(=O)[C@@H]2CSSC[C@H](NC1=O)C(=O)N[C@@H](Cc1c[nH]cn1)C(=O)N1C[C@H](O)C[C@H]1C(=O)N[C@H](C(N)=O)CSSC[C@H](NC(=O)[C@@H](NC(=O)CNC(=O)[C@@H](N)CC(N)=O)C(C)C)C(=O)N2` [compound 203] as the compound, how does the “Av IC50 Displacement of 3H-nisoxetine from hNET” value [1] read?
Answer: −2.00

Question: And the IC50 [2]?
Answer: 13800 nM

Question: `COc1ccc(C[C@@H]2NC(=O)CNC(=O)[C@@H]3CSSC[C@H](NC(=O)[C@H](CC(C)C)NC(=O)[C@H](CCCCN)NC2=O)C(=O)N[C@@H](Cc2c[nH]cn2)C(=O)N2C[C@H](O)C[C@H]2C(=O)N[C@H](C(N)=O)CSSC[C@H](NC(=O)[C@@H](NC(=O)CNC(=O)C[C@@H](N)CCCCN)C(C)C)C(=O)N3)cc1` [compound 79] was tested. Which IC50 [1] did it give?
Answer: 275 nM

Question: And the IC50 [2]?
Answer: 77.6 nM

Question: Which results are given for `CCCC[C@H](N)C(=O)NCC(=O)N[C@H](C(=O)N[C@H]1CSSC[C@@H](C(N)=O)NC(=O)[C@@H]2C[C@@H](O)CN2C(=O)[C@H](Cc2c[nH]cn2)NC(=O)[C@@H]2CSSC[C@H](NC1=O)C(=O)NCC(=O)N[C@@H](Cc1ccc(OC)cc1)C(=O)N[C@@H](CCCCN)C(=O)N[C@@H](CC(C)C)C(=O)N2)C(C)C` [compound 107]?
Answer: IC50 [1]: 832 nM; IC50 [2]: 219 nM

Question: Which results are given for `CCCC[C@H](NC(=O)CNC(=O)[C@@H](N)CCCN)C(=O)N[C@H]1CSSC[C@@H](C(N)=O)NC(=O)[C@@H]2C[C@@H](O)CN2C(=O)[C@H](Cc2c[nH]cn2)NC(=O)[C@@H]2CSSC[C@H](NC1=O)C(=O)NCC(=O)N[C@@H](Cc1ccc(OC)cc1)C(=O)N[C@@H](CCCCN)C(=O)N[C@@H](CCC(C)C)C(=O)N2` [compound 42]?
Answer: IC50 [1]: 117 nM; IC50 [2]: 46.8 nM

Question: `CC(C)C[C@@H]1NC(=O)[C@H](CCCCN)NC(=O)[C@H](Cc2ccc(O)cc2)NC(=O)CNC(=O)[C@@H]2CSSC[C@H](NC1=O)C(=O)N[C@@H](Cc1c[nH]cn1)C(=O)N1C[C@H](O)C[C@H]1C(=O)N[C@H](C(N)=O)CSSC[C@H](NC(=O)[C@@H](NC(=O)CNC(=O)c1ccccc1N)C(C)C)C(=O)N2` [compound 136] was tested. Which IC50 [1] did it give?
Answer: 2090 nM

Question: What about the IC50 [2] of the same compound?
Answer: 457 nM

Question: Which IC50 [1] does the source give for `CCCC[C@H](NC(=O)CNC(=O)[C@H](CCCNC(=N)N)NC(=O)[C@H](Cc1ccc(O)cc1)NC(=O)[C@@H](N)CCCCN)C(=O)N[C@H]1CSSC[C@@H](C(N)=O)NC(=O)[C@@H]2C[C@@H](O)CN2C(=O)[C@H](CCCNC(=N)N)NC(=O)[C@@H]2CSSC[C@H](NC1=O)C(=O)NCC(=O)N[C@@H](Cc1ccc(OC)cc1)C(=O)N[C@@H](CCCCN)C(=O)N[C@@H](CC(C)C)C(=O)N2` [compound 18] here?
Answer: 34.7 nM

Question: What about the IC50 [2] of the same compound?
Answer: 51.3 nM

Question: With `CC(C)C[C@@H]1NC(=O)[C@H](CCCCN)NC(=O)[C@H](Cc2ccc(O)cc2)NC(=O)CNC(=O)[C@@H]2CSSC[C@H](NC1=O)C(=O)N[C@@H](Cc1c[nH]cn1)C(=O)N1C[C@H](O)C[C@H]1C(=O)N[C@H](C(N)=O)CSSC[C@H](NC(=O)[C@@H](NC(=O)CNC(=O)[C@H](N)CCCNC(=N)N)C(C)C)C(=O)N2` [compound 103] as the compound, how does the IC50 [1] read?
Answer: 708 nM

Question: And the IC50 [2]?
Answer: 316 nM

Question: What does the source list for `CCCC[C@H](NC(=O)CNC(=O)[C@H](CCCNC(=N)N)NC(=O)[C@H](Cc1ccccc1)NC(=O)[C@@H](N)Cc1ccc(O)cc1)C(=O)N[C@H]1CSSC[C@@H](C(N)=O)NC(=O)[C@@H]2C[C@@H](O)CN2C(=O)[C@H](CCCNC(=N)N)NC(=O)[C@@H]2CSSC[C@H](NC1=O)C(=O)NCC(=O)N[C@@H](Cc1ccc(OC)cc1)C(=O)N[C@@H](CCCCN)C(=O)N[C@@H](CC(C)C)C(=O)N2` [compound 28]?
Answer: IC50 [1]: 72.4 nM; IC50 [2]: 69.2 nM

Question: For `COc1ccc(C[C@@H]2NC(=O)CNC(=O)[C@@H]3CSSC[C@H](NC(=O)[C@H](CC(C)C)NC(=O)[C@H](CCCCN)NC2=O)C(=O)N[C@@H](Cc2c[nH]cn2)C(=O)N2C[C@H](O)C[C@H]2C(=O)N[C@H](C(N)=O)CSSC[C@H](NC(=O)[C@@H](NC(=O)CNC(=O)[C@H](N)CCCNC(=N)N)C(C)C)C(=O)N3)cc1` [compound 77], which IC50 [1] is on record?
Answer: 275 nM

Question: What about the IC50 [2] of the same compound?
Answer: 123 nM

Question: What does the source list for `CC(C)C[C@@H]1NC(=O)[C@H](CCCCN)NC(=O)[C@H](Cc2ccc(O)cc2)NC(=O)CNC(=O)[C@@H]2CSSC[C@H](NC1=O)C(=O)N[C@@H](Cc1c[nH]cn1)C(=O)N1C[C@H](O)C[C@H]1C(=O)N[C@H](C(N)=O)CSSC[C@H](NC(=O)[C@@H](NC(=O)CNC(=O)[C@@H](N)CCCNC(N)=O)C(C)C)C(=O)N2` [compound 139]?
Answer: IC50 [1]: 2290 nM; IC50 [2]: 437 nM

Question: `CC(C)C[C@@H]1NC(=O)[C@H](CCCCN)NC(=O)[C@H](Cc2ccc(O)cc2)NC(=O)CNC(=O)[C@@H]2CSSC[C@H](NC1=O)C(=O)N[C@@H](Cc1c[nH]cn1)C(=O)N1C[C@H](O)C[C@H]1C(=O)N[C@H](C(N)=O)CSSC[C@H](NC(=O)[C@H](C)NC(=O)CNC(=O)[C@@H](N)CC(N)=O)C(=O)N2` [compound 150] was tested. Which IC50 [1] did it give?
Answer: 3470 nM

Question: What about the IC50 [2] of the same compound?
Answer: 977 nM

Question: Which results are given for `CCCC[C@H](NC(=O)CNC(=O)[C@H](CCCNC(=N)N)NC(=O)[C@@H](N)Cc1ccc(O)cc1)C(=O)N[C@H]1CSSC[C@@H](C(N)=O)NC(=O)[C@@H]2C[C@@H](O)CN2C(=O)[C@H](CCCNC(=N)N)NC(=O)[C@@H]2CSSC[C@H](NC1=O)C(=O)NCC(=O)N[C@@H](Cc1ccc(OC)cc1)C(=O)N[C@@H](CCCCN)C(=O)N[C@@H](CC(C)C)C(=O)N2` [compound 14]?
Answer: IC50 [1]: 15.8 nM; IC50 [2]: 33.1 nM

Question: What does the source list for `CC(C)C[C@@H]1NC(=O)[C@H](CCCCN(C)C)NC(=O)[C@H](Cc2ccc(O)cc2)NC(=O)CNC(=O)[C@@H]2CSSC[C@H](NC1=O)C(=O)N[C@@H](Cc1c[nH]cn1)C(=O)N1C[C@H](O)C[C@H]1C(=O)N[C@H](C(N)=O)CSSC[C@H](NC(=O)[C@@H](NC(=O)CNC(=O)[C@@H](N)CC(N)=O)C(C)C)C(=O)N2` [compound 167]?
Answer: IC50 [1]: 8510 nM; IC50 [2]: 1450 nM

Question: What does the source list for `COc1ccc(C[C@@H]2NC(=O)CNC(=O)[C@@H]3CSSC[C@H](NC(=O)[C@H](CC(C)C)NC(=O)[C@H](CCCCN)NC2=O)C(=O)N[C@@H](Cc2c[nH]cn2)C(=O)N2C[C@H](O)C[C@H]2C(=O)N[C@H](C(N)=O)CSSC[C@H](NC(=O)[C@@H](NC(=O)CNC(=O)[C@H](CC(N)=O)NC(=O)[C@@H]2CCC(=O)N2)C(C)C)C(=O)N3)cc1` [compound 140]?
Answer: IC50 [1]: 2290 nM; IC50 [2]: 263 nM

Question: `CC(C)C[C@@H]1NC(=O)[C@H](CCCCN)NC(=O)[C@H](Cc2ccc(O)cc2)NC(=O)CNC(=O)[C@@H]2CSSC[C@H](NC1=O)C(=O)N[C@@H](Cc1c[nH]cn1)C(=O)N1C[C@H](O)C[C@H]1C(=O)N[C@H](C(N)=O)CSSC[C@H](NC(=O)[C@@H](NC(=O)CNC(=O)[C@H](N)CCCCN)C(C)C)C(=O)N2` [compound 121] was tested. Which IC50 [1] did it give?
Answer: 1320 nM

Question: What about the IC50 [2] of the same compound?
Answer: 457 nM

Question: How did the IC50 [1] turn out when `CC(C)C[C@H](NC(=O)CNC(=O)[C@H](CC(N)=O)NC(=O)[C@@H](N)Cc1c[nH]c2ccccc12)C(=O)N[C@H]1CSSC[C@@H](C(N)=O)NC(=O)[C@@H]2C[C@@H](O)CN2C(=O)[C@H](Cc2c[nH]cn2)NC(=O)[C@@H]2CSSC[C@H](NC1=O)C(=O)NCC(=O)N[C@@H](Cc1ccc(O)cc1)C(=O)N[C@@H](CCCCN)C(=O)N[C@@H](CC(C)C)C(=O)N2` [compound 72] was run?
Answer: 240 nM

Question: What about the IC50 [2] of the same compound?
Answer: 60.3 nM

Question: Which results are given for `CCCC[C@H](NC(=O)CNC(=O)[C@H](CCCNC(=N)N)NC(=O)[C@H](CCCN)NC(=O)[C@@H](N)Cc1ccc(O)cc1)C(=O)N[C@H]1CSSC[C@@H](C(N)=O)NC(=O)[C@@H]2C[C@@H](O)CN2C(=O)[C@H](CCCNC(=N)N)NC(=O)[C@@H]2CSSC[C@H](NC1=O)C(=O)NCC(=O)N[C@@H](Cc1ccc(OC)cc1)C(=O)N[C@@H](CCCCN)C(=O)N[C@@H](CC(C)C)C(=O)N2` [compound 23]?
Answer: IC50 [1]: 44.7 nM; IC50 [2]: 61.7 nM
